{
  "source": "ChEMBL document CHEMBL1135511",
  "about": "“Structure activity of 3-aryl-1,3-diketo-containing compounds as HIV-1 integrase inhibitors” (J Med Chem, 2002)",
  "key": {"[1]": {"molecular_target": "T1, Human immunodeficiency virus type 1 integrase (Human immunodeficiency virus 1, UniProt Q7ZJM1)"}, "[2]": {"molecular_target": "T1, Human immunodeficiency virus type 1 integrase", "experiment": "Inhibitory effect on strand transfer of proximal DNA into host DNA in an extracellular HIV-1 integrase assay in experiment 1"}, "[3]": {"molecular_target": "T1, Human immunodeficiency virus type 1 integrase", "experiment": "Inhibitory effect on strand transfer of proximal DNA into host DNA in an extracellular HIV-1 integrase assay in experiment 2"}},
  "data": [
    {"smiles": "O=C(O)C(=O)/C=C(\\O)c1ccccc1", "values": [
      {"measurement": "IC50", "setting": "[1]", "value": "> 100", "unit": "µM"},
      {"measurement": "IC50", "setting": "[2]", "value": 24.2, "unit": "µM"},
      {"measurement": "IC50", "setting": "[3]", "value": 25, "unit": "µM"}
    ]}
  ]
}
